Screens from PubChem.
MmCpn inh = blocks the Methanococcus maripaludis chaperonin Mm-Cpn. 330,000 compounds, 0.031% hits. purified Mm-Cpn ATPase, ADP Transcreener TR-FRET. Potency, µM (titrated, usually from 76.9 µM), hits mostly inhibitors; active = well fitted inhibition curve with a large enough effect; inconclusive = small, poorly fitted or top-dose-only effect; note: nearly all actives have a fitted effect of over 80% in size
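Inhibition of chaperonin ATP hydrolysis is measured as reduced ADP production, detected by competitive TR-FRET in which signal falls with ADP. Final enzyme 25 nM and ATP 10 uM, reacted 30 min at 37°C.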
hERG WT inh = blocks the wildtype human KCNH2 potassium channel; Q12809; U2OS, BacMam KCNH2, thallium flux FluxOr; stronger effect = lower value; activity change, % at 1.84 µM; 340,000 compounds, 0.37% hits;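 active = maximum activity change below -70%; inconclusive = maximum activity change between -70% and -50%; inactive = maximum activity change above -50%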
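U2OS cells transduced with wild-type KCNH2 virus are loaded with FluxOr dye for 45 min, and thallium flux is measured in kinetic reads before and after stimulation buffer. Rate constants are normalized to DMSO controls.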
KCNH2 3.1 block = KCNH2 3.1 (human) potassium channel inhibition | U2OS KCNH2 3.1, thallium flux FluxOr; stronger effect = lower value | AID 720553 | activity change, % (tested at about 1.8 µM) | 340,000 compounds, 0.95% hits;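 active = maximum activity change below -70%; inconclusive = maximum activity change from -70% to -50%; inactive = maximum activity change above -50%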;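 note: thallium influx rate constant from kinetic fluorescence after stimulation buffer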
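Kinetic fluorescence (2 min after stimulation buffer) measures Tl+ influx through KCNH2 3.1 expressed by viral transduction in U2OS cells; the rate constant is normalized against DMSO controls serving as positive and negative references.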
Rango dissoc inh = inhibitors of RanGTP-induced Rango-importin beta complex dissociation | Biochemical FRET Rango-importin beta, RanGTP-induced dissociation | 340,000 compounds, 0.071% hits | AID 540253 | O95149+P62826 | Potency, µM (doses to about 46.1 µM); note: nearly all actives have a fitted effect of over 45% in size
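Rango FRET biosensor (snurportin-1 IBB flanked by N-terminal EYFP and C-terminal CFP10) at 0.1 uM, with 0.25 uM importin beta in PBS, 1mM DTT, 0.02% Tween-20, 0.1% BSA. 0.6 uM Ran, 2mM GTP and 0.2 uM RCC1 were then added for 45 min at room temperature. Inhibition read as loss of FRET rise.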
Rango-impB inh = prevents formation of the Rango-importin beta complex | Potency, µM (top dose mostly 92.2 µM) | 340,000 compounds, 0.031% hits | Rango CFP/YFP FRET sensor + importin beta, 45 min | Q14974; note: nearly all actives have a fitted effect of over 15% in size
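FRET biosensor Rango (snurportin 1 IBB between N-terminal EYFP and C-terminal Cerulean), 50 nM in PBS/1 mM DTT/0.02% Tween-20/0.1% BSA, preincubated 5 min RT with compound; 0.125 microM importin beta added, 45 min RT, CFP/YFP FRET ratio read.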
CCT chaperon mod = cytosolic chaperonin activity modulation | purified chaperonin ATPase assay, HTRF ADP detection, 30 min | activity change, % (test concentration not listed), hits read low | 360,000 compounds, 0.3% hits | AID 651819; in the data active = activity change below about -30%
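Enzyme 40 or 20 nM (batch-dependent) in Tris pH 7.4/KCl/MgCl2/DTT; cpd 76 uM single point; ATP 10 uM; 30 min 37 °C; Transcreener ADP HTRF detection, 30 min RT; ratio 665/615.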
Numbers stand for hits. A selection: hits, their analogues and other compounds. The true share with any hit is near 1.4%. Unless noted, calls come from the whole dose curve.

How did N#Cc1nc(COc2ccc(-c3ccccc3)cc2)oc1NCCCN1CCOCC1 do in these assays?
MmCpn inh: inactive; hERG WT inh: inactive; KCNH2 3.1 block: inconclusive; Rango dissoc inh: inactive; Rango-impB inh: inactive; CCT chaperon mod: inactive

How did CN(C)CCNc1oc(COc2ccc(Cl)cc2Cl)nc1C#N do in these assays?
MmCpn inh: inactive; hERG WT inh: inactive; KCNH2 3.1 block: inactive; Rango dissoc inh: 16µM; Rango-impB inh: inconclusive; CCT chaperon mod: inactive

How did CN(C)CCNc1oc(COc2ccc(-c3ccccc3)cc2)nc1C#N do in these assays?
MmCpn inh: inactive; hERG WT inh: inactive; KCNH2 3.1 block: -72; Rango dissoc inh: inactive; Rango-impB inh: inactive; CCT chaperon mod: inactive

How did COc1cc(/C=C/C(=O)OCC(=O)N2CCN(S(=O)(=O)c3ccc(C)cc3C)CC2)cc(Cl)c1OC do in these assays?
MmCpn inh: inactive; hERG WT inh: inactive; KCNH2 3.1 block: inactive; Rango dissoc inh: inactive; Rango-impB inh: inactive; CCT chaperon mod: inactive

Results for Cc1ccc(NC(C(=O)c2ccccc2)c2ccccc2)cc1 (centres undefined) ?
hERG WT inh: inactive; KCNH2 3.1 block: inactive; Rango dissoc inh: inactive; Rango-impB inh: inactive; CCT chaperon mod: inactive

Results for CC(Sc1nncs1)C(=O)Nc1ccc(S(=O)(=O)Nc2ncccn2)cc1 (centres undefined) ?
MmCpn inh: inactive; hERG WT inh: inactive; KCNH2 3.1 block: inactive; Rango dissoc inh: inactive; Rango-impB inh: inactive; CCT chaperon mod: inactive

What do the screens show for `COc1ccc(C(C(N)=O)c2ncc(C(F)(F)F)cc2Cl)cc1OC` (centres undefined)?
MmCpn inh: inactive; hERG WT inh: inactive; KCNH2 3.1 block: inactive; Rango dissoc inh: inactive; Rango-impB inh: inactive; CCT chaperon mod: inactive

Results for COc1ccc(NC(=O)N2CCCC2C(=O)Nc2ccc(C)cc2C)cc1 (centres undefined) ?
MmCpn inh: inactive; hERG WT inh: inactive; KCNH2 3.1 block: inactive; Rango dissoc inh: inactive; Rango-impB inh: inactive; CCT chaperon mod: inactive

Results for CCc1ccc(NC(=O)C2CCCN(S(=O)(=O)c3cnc[nH]3)C2)cc1 (centres undefined) ?
MmCpn inh: inactive; hERG WT inh: inactive; KCNH2 3.1 block: inactive; Rango dissoc inh: inactive; Rango-impB inh: inactive; CCT chaperon mod: -74

How did CCc1ccc(NC(=O)C2CCN(S(=O)(=O)c3cnc[nH]3)CC2)cc1 do in these assays?
MmCpn inh: inactive; hERG WT inh: inactive; KCNH2 3.1 block: inactive; Rango dissoc inh: inactive; Rango-impB inh: inactive; CCT chaperon mod: inactive

How did COc1ccccc1-c1c(C)oc2c(CN3CCN(CCO)CC3)c(O)ccc2c1=O do in these assays?
MmCpn inh: inactive; hERG WT inh: inactive; KCNH2 3.1 block: inactive; Rango dissoc inh: inactive; Rango-impB inh: inactive; CCT chaperon mod: -52

What do the screens show for `COc1ccccc1-c1c(C)oc2c(CN3CCN(C)CC3)c(O)ccc2c1=O`?
MmCpn inh: inactive; hERG WT inh: inactive; KCNH2 3.1 block: inactive; Rango dissoc inh: inactive; Rango-impB inh: inactive; CCT chaperon mod: inactive

How did O=Cc1c[nH]c2ccc(NC(=O)OCc3ccccc3)cc12 do in these assays?
hERG WT inh: inactive; KCNH2 3.1 block: inactive; Rango dissoc inh: inactive; Rango-impB inh: inactive; CCT chaperon mod: inactive

Results for O=Cc1c[nH]c2cccc(OCc3ccccc3)c12 ?
MmCpn inh: inactive; hERG WT inh: inactive; KCNH2 3.1 block: inactive; Rango dissoc inh: inactive; Rango-impB inh: 58µM; CCT chaperon mod: inactive

How did CCOCCCNC(=O)/C(C#N)=C/c1cc(C)c(O)c(C)c1 do in these assays?
MmCpn inh: inactive; hERG WT inh: inactive; KCNH2 3.1 block: inactive; Rango dissoc inh: 26µM; Rango-impB inh: inconclusive; CCT chaperon mod: inactive

What do the screens show for `Cc1cc(/C=C(\C#N)C(=O)NCc2ccccc2)cc(C)c1O`?
MmCpn inh: inactive; hERG WT inh: inactive; KCNH2 3.1 block: inactive; Rango dissoc inh: 6.5µM; Rango-impB inh: inconclusive; CCT chaperon mod: inactive

Results for COc1ccc(NC(=O)Cn2cnc3sc(C)c(S(=O)(=O)N4CCOCC4)c3c2=O)cc1Cl ?
MmCpn inh: inactive; hERG WT inh: inactive; KCNH2 3.1 block: inactive; Rango dissoc inh: inactive; Rango-impB inh: inactive; CCT chaperon mod: inactive

Results for O=C(CCc1ccccc1)N=C1SC2CS(=O)(=O)CC2N1Cc1ccc(F)cc1 (centres undefined) ?
MmCpn inh: inactive; hERG WT inh: inactive; KCNH2 3.1 block: inactive; Rango dissoc inh: inactive; Rango-impB inh: inactive; CCT chaperon mod: inactive

How did CC1CCN(CCCNC(=O)c2cc3c(s2)-c2ccccc2OC3)CC1 do in these assays?
MmCpn inh: inactive; hERG WT inh: inactive; KCNH2 3.1 block: inactive; Rango dissoc inh: inactive; Rango-impB inh: inactive; CCT chaperon mod: inactive

What do the screens show for `Cc1cccc2c1-c1sc(C(=O)NCCCN3CCC(C)CC3)cc1CO2`?
MmCpn inh: inactive; hERG WT inh: inactive; KCNH2 3.1 block: -75; Rango dissoc inh: inactive; Rango-impB inh: inactive; CCT chaperon mod: inactive

Results for COC(=O)C1=C(CSCc2ccco2)NC(=O)NC1c1cc(C)ccc1C (centres undefined) ?
MmCpn inh: inactive; hERG WT inh: inactive; KCNH2 3.1 block: inactive; Rango dissoc inh: inactive; Rango-impB inh: inconclusive; CCT chaperon mod: inactive

What do the screens show for `CCc1nnc(NC(=O)CSc2nnc(C)n2CC2CCCO2)s1` (centres undefined)?
MmCpn inh: inactive; hERG WT inh: -161; KCNH2 3.1 block: inactive; Rango dissoc inh: inactive; Rango-impB inh: inactive; CCT chaperon mod: inactive

How did CCCc1nnc(SCC(=O)Nc2nnc(CC)s2)n1CC1CCCO1 (centres undefined) do in these assays?
MmCpn inh: inactive; hERG WT inh: inactive; KCNH2 3.1 block: inactive; Rango dissoc inh: inactive; Rango-impB inh: inactive; CCT chaperon mod: inactive

How did CCSc1cnn(-c2ccccc2)c(=O)c1SCC do in these assays?
MmCpn inh: inconclusive; hERG WT inh: inactive; KCNH2 3.1 block: inactive; Rango dissoc inh: inactive; Rango-impB inh: inactive; CCT chaperon mod: inactive

How did CCCCSc1cnn(-c2ccccc2)c(=O)c1SCCCC do in these assays?
MmCpn inh: 40µM; hERG WT inh: inactive; KCNH2 3.1 block: inactive; Rango dissoc inh: inactive; Rango-impB inh: inactive; CCT chaperon mod: inactive

How did COc1ccc(-c2cc(C(=O)Nc3cc(OC)c(OC)c(OC)c3)no2)cc1 do in these assays?
MmCpn inh: inactive; hERG WT inh: inactive; KCNH2 3.1 block: inactive; Rango dissoc inh: inactive; Rango-impB inh: inactive; CCT chaperon mod: -34

How did COc1ccc(C(C)(O)c2nc(-c3ccoc3)cs2)cc1 (centres undefined) do in these assays?
CCT chaperon mod: inactive

How did Cc1ccc(S(=O)(=O)n2nc(C)cc2C)cc1 do in these assays?
MmCpn inh: inactive; hERG WT inh: inactive; KCNH2 3.1 block: inactive; Rango dissoc inh: inactive; Rango-impB inh: inactive; CCT chaperon mod: inactive
